Tested on: H1975
Experiment: Cell proliferation / survival inhibition by MTS analysis (H1975)
Assay type: cell-based
Conditions: Homo sapiens
Description: Sk-Br3 (Korean cell line bank), a breast cancer cell, and H1975 cell (ATCC), a nonsmall cell lung cancer, were cultured in RPMI 1640 containing 25 mM HEPES (4-(2-hydroxyethyl)-1-piperazineethanesulfonic acid) and RPMI 1640 containing L-glutamine (containing streptomycin ([…]), penicillin (100 units/mL) and 10% fetal bovine serum (FBS)).
Next, non-metastatic lung cancer cells were treated with Compound 17 and the cell proliferation rate or cell survival rate was measured by MTS [3-(4,5-dimethylthiazol-2-yl)-5-(3-carboxymethoxyphenyl)-1-2H-tetrazolium, inner salt] analysis.
Cells were dispensed in 96-well plates at 3000 cell/well (Sk-Br3) and 2000 cell/well (H1975), and 100 μL of the medium was added per well and then was incubated overnight. […]
Cell proliferation was evaluated using the Promega Cell Titer 96 Aqueous One Solution cell proliferation assay. […]
Cell proliferation was confirmed by measuring the absorbance at 490 nm using a microplate reader (Tecan Infinite F200 Proplate reader).
Compound 17 at a concentration of 0, 0.01, 0.1, 1, 5, 10, 30, 50 or 70 μM or 1% DMSO vehicle (control group) was added to each well and incubated at 37° C. for 72 hours and the absorbance was measured at 490 nm and the measured value was expressed as a percentage of the absorbance of the cells cultured only with DMSO to confirm cell survival.

With `O=C1CCN(C(=O)c2cc(Cl)c(O)cc2O)CC1` [Compound 11i, 1-(5-chloro-2,4-dihydroxybenzoyl)piperidin-4-one] the inhibition at 10 µM (NCI-H1975, read-out: Inhibition rate at 10 μM (%)) was 12.5% and the inhibition at 30 µM (NCI-H1975, read-out: Inhibition rate at 30 μM (%)) was 48.2%.
